This assay concerns the target T1, human transferrin receptor (hTfR) (Homo sapiens, UniProt P02786).
T1 construct: made in house
Description: Evaluation of molecular interaction between transferrin receptor (hTfR) and peptide using surface plasmon resonance (SPR). In kind it is binding. In a few lines: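 Recombinant human TfR dimer (0.5 μM) was captured on a Ni-charged NTA chip and amine-coupled with EDC/NHS, then ethanolamine-capped. Peptides at 5–100 nM in HEPES pH 8.0 buffer with 150 mM NaCl, 0.05% Tween 20, 0.1% BSA and 1.0% DMSO were run by single-cycle kinetics; KD came from least-squares curve fitting.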
(In general: In SPR one partner is held on a chip, and binding of the other changes the refractive index at the surface.)

Amino acid sequences for entries named in this document (tags omitted). Residues count along the entry.
UniProt P02786, 89-760 limits assumed: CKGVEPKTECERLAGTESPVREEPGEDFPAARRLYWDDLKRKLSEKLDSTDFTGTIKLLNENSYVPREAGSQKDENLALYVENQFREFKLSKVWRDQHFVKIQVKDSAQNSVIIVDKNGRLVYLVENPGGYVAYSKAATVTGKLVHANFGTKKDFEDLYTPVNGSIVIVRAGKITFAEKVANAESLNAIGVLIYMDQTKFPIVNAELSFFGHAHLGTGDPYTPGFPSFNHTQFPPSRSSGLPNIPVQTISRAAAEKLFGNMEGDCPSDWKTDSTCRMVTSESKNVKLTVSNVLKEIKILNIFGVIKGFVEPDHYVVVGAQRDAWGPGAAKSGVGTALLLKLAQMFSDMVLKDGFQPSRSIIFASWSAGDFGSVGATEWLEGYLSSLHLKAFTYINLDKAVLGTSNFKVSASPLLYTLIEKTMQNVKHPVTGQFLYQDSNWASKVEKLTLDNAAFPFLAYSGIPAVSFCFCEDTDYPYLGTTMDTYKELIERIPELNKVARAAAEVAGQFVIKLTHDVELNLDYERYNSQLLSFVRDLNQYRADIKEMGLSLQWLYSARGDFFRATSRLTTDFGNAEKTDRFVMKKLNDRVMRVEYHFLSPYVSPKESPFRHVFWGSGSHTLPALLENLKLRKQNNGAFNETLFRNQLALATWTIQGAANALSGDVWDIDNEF

The mark [1] stands for this setting: KD class of peptide with linker binding to hTfR, by SPR (TABLE 5), read-out: SPR.
[2] abbreviates: KD class of the peptide with linker for hTfR by surface plasmon resonance, read-out: SPR.

Read-outs that look alike come from different tables or passages of the source.

As to `CC[C@H](C)[C@@H]1NC(=O)[C@H](Cc2ccc(O)cc2)NC(=O)[C@H](Cc2ccc(O)cc2)NC(=O)[C@H](CC(N)=O)NC(=O)[C@H](Cc2c[nH]c3ccccc23)NC(=O)CNC(=O)[C@H](Cc2ccccc2)N(C)C(=O)[C@H](C(C)C)NC(=O)[C@H](C)NC(=O)CSC[C@@H](C(=O)NCCOCCOCCOCCOCCOCCOCCOCCOCCOCCOCCOCCOCCC(N)=O)NC(=O)[C@H](Cc2ccc(O)cc2)N(C)C(=O)[C@H](Cc2ccc(O)cc2)NC(=O)[C@H](CCCNC(=N)N)NC(=O)[C@H](CCCNC(=N)N)NC(=O)[C@H]([C@@H](C)CC)NC1=O` [compound 259], for the setting “SPR, immobilized recombinant hTfR, single-cycle kinetics, substitution variants of 894_3151, read-out: KD”, the Kd came out at 952 nM.
Consider `CC[C@H](C)[C@@H]1NC(=O)[C@H](Cc2ccc(OCC(=O)O)cc2)NC(=O)[C@H](Cc2ccc(O)cc2)NC(=O)[C@H](CC(N)=O)NC(=O)[C@H](Cc2cn(CC(=O)O)c3ccccc23)NC(=O)[C@H](C(C)C)NC(=O)[C@H](Cc2cccc(Cl)c2)N(C)C(=O)[C@H](C(C)C)NC(=O)[C@H](C)NC(=O)CSC[C@@H](C(=O)NCC(=O)N[C@H](CO)C(=O)N[C@H](CO)C(=O)N[C@H](CCC(=O)O)C(=O)N[C@H](CCC(=O)O)C(=O)N[C@H](CO)C(=O)N[C@@H](CCCCNC(C)=O)C(N)=O)NC(=O)[C@H](Cc2ccc(O)cc2)N(C)C(=O)[C@H](Cc2ccccc2)NC(=O)[C@H](CCCNC(=N)N)NC(=O)[C@H](CCCNC(=N)N)NC(=O)[C@H]([C@@H](C)CC)NC1=O` [compound 311], for which, under setting [1], the Kd lay within 1 to 100 nM.
Same read-out and setting: under `CC[C@H](C)[C@@H]1NC(=O)[C@H](Cc2ccc(OCC(=O)O)cc2)NC(=O)[C@H](Cc2ccc(N)nc2)NC(=O)[C@H](CC(N)=O)NC(=O)[C@H](Cc2c[nH]c3ccccc23)NC(=O)[C@H](C(C)C)NC(=O)[C@H](Cc2cccc(Cl)c2)N(C)C(=O)[C@H](C(C)C)NC(=O)[C@H](C)NC(=O)CSC[C@@H](C(=O)NCC(=O)NCC(=O)NCC(=O)NCC(=O)N[C@H](CO)C(=O)N[C@H](CO)C(=O)N[C@H](CCCCN)C(N)=O)NC(=O)[C@H](Cc2ccc(O)cc2)N(C)C(=O)[C@H](Cc2cccc(C(=O)O)c2)NC(=O)[C@H](CCCNC(=N)N)NC(=O)[C@H](CCC(=O)NCCOCCOCCOCCOCCOCCOCCOCCOC)NC(=O)[C@H]([C@@H](C)CC)NC1=O` [compound 339] stands 1 to 100 nM.
Turning to `CC[C@H](C)[C@@H]1NC(=O)[C@H](Cc2ccc(O)cc2)NC(=O)[C@H](Cc2ccc(O)cc2)NC(=O)[C@H](CC(N)=O)NC(=O)[C@H](Cc2c[nH]c3ccccc23)N(C)C(=O)[C@H](C(C)C)NC(=O)[C@H](Cc2ccccc2)N(C)C(=O)[C@H](C(C)C)NC(=O)[C@H](C)NC(=O)CSC[C@@H](C(=O)NCC(=O)N[C@@H](CCC(=O)O)C(=O)N[C@H](C(=O)N[C@@H](CCCNC(N)=O)C(=O)N[C@@H](CCCCN=[N+]=[N-])C(N)=O)C(C)C)NC(=O)[C@H](Cc2ccc(O)cc2)N(C)C(=O)[C@H](Cc2ccc(O)cc2)NC(=O)[C@H](CCCNC(=N)N)NC(=O)[C@H](CCCCN)NC(=O)[C@H]([C@@H](C)CC)NC1=O` [compound 300], under setting [2], the Kd was in the range of 1 to 100 nM.
`CC[C@H](C)[C@@H]1NC(=O)[C@H](Cc2ccc(OCC(=O)O)cc2)NC(=O)[C@H](Cc2ccc(O)cc2)NC(=O)[C@H](CC(N)=O)NC(=O)[C@H](Cc2cn(CC(=O)O)c3ccccc23)NC(=O)[C@H](C(C)C)NC(=O)[C@H](Cc2cccc(Cl)c2)N(C)C(=O)[C@H](C(C)C)NC(=O)[C@H](C)NC(=O)CSC[C@@H](C(=O)NCC(=O)N[C@H](CCC(=O)O)C(=O)N[C@H](CO)C(=O)N[C@H](CO)C(=O)N[C@H](CCC(=O)O)C(=O)N[C@H](CO)C(=O)N[C@@H](CCCCNC(C)=O)C(N)=O)NC(=O)[C@H](Cc2ccc(O)cc2)N(C)C(=O)[C@H](Cc2ccccc2)NC(=O)[C@H](CCCNC(=N)N)NC(=O)[C@H](CCCNC(=N)N)NC(=O)[C@H]([C@@H](C)CC)NC1=O` [compound 313]: the Kd under setting [1] lay in the range of 1 to 100 nM.
For `CC[C@H](C)[C@@H]1NC(=O)[C@H](Cc2ccc(OCC(=O)O)cc2)NC(=O)[C@H](Cc2ccc(O)cc2)NC(=O)[C@H](CC(N)=O)NC(=O)[C@H](Cc2cn(CC(=O)O)c3ccccc23)NC(=O)[C@H](C(C)C)NC(=O)[C@H](Cc2cccc(Cl)c2)N(C)C(=O)[C@H](C(C)C)NC(=O)[C@H](C)NC(=O)CSC[C@@H](C(=O)NCC(=O)N[C@H](CCC(=O)O)C(=O)N[C@H](CO)C(=O)N[C@H](CCC(=O)O)C(=O)N[C@H](CO)C(=O)N[C@H](CO)C(=O)N[C@@H](CCCCNC(C)=O)C(N)=O)NC(=O)[C@H](Cc2ccc(O)cc2)N(C)C(=O)[C@H](Cc2ccccc2)NC(=O)[C@H](CCCNC(=N)N)NC(=O)[C@H](CCCNC(=N)N)NC(=O)[C@H]([C@@H](C)CC)NC1=O` [compound 322], the Kd under setting [1] was 1 to 100 nM.
Take `CC[C@H](C)[C@@H]1NC(=O)[C@H](Cc2ccc(O)cc2)NC(=O)[C@H](Cc2ccc(O)cc2)NC(=O)[C@H](CC(N)=O)NC(=O)[C@H](Cc2c[nH]c3ccccc23)NC(=O)[C@H](C(C)C)NC(=O)[C@H](Cc2ccccc2)N(C)C(=O)[C@H](C(C)C)NC(=O)[C@H](C)NC(=O)CSC[C@@H](C(=O)NCC(=O)NCC(=O)NCC(=O)N[C@@H](Cc2ccccc2)C(=O)NCC(=O)N[C@@H](CCCCN=[N+]=[N-])C(N)=O)NC(=O)[C@H](Cc2ccc(O)cc2)N(C)C(=O)[C@H](Cc2ccc(O)cc2)NC(=O)[C@H](CCCNC(=N)N)NC(=O)[C@H](CCCNC(=N)N)NC(=O)[C@H]([C@@H](C)CC)NC1=O` [compound 298]: under setting [2], the Kd lay in the range of 1 to 100 nM.
As for `CC[C@H](C)[C@@H]1NC(=O)[C@H](Cc2ccc(O)cc2)NC(=O)[C@H](Cc2ccc(O)cc2)NC(=O)[C@H](CC(N)=O)NC(=O)[C@H](Cc2c[nH]c3ccccc23)NC(=O)[C@H](C(C)C)NC(=O)[C@H](Cc2ccccc2)N(C)C(=O)[C@H](C(C)C)NC(=O)[C@H](C)NC(=O)CSC[C@@H](C(=O)NCC(=O)N[C@@H](CS)C(N)=O)NC(=O)[C@H](Cc2ccc(O)cc2)N(C)C(=O)[C@H](Cc2ccc(O)cc2)NC(=O)[C@H](CCCNC(=N)N)NC(=O)[C@H](CCCNC(=N)N)NC(=O)[C@H]([C@@H](C)CC)NC1=O` [compound 264], the Kd under setting [2] was 1 to 100 nM.
`CC[C@H](C)[C@@H]1NC(=O)[C@H](Cc2ccc(OCC(=O)O)cc2)NC(=O)[C@H](Cc2ccc(O)cc2)NC(=O)[C@H](CC(N)=O)NC(=O)[C@H](Cc2cn(CC(=O)O)c3ccccc23)NC(=O)[C@H](C(C)C)NC(=O)[C@H](Cc2cccc(Cl)c2)N(C)C(=O)[C@H](C(C)C)NC(=O)[C@H](C)NC(=O)CSC[C@@H](C(=O)NCC(=O)N[C@H](CO)C(=O)N[C@H](CCC(=O)O)C(=O)N[C@H](CO)C(=O)N[C@H](CO)C(=O)N[C@H](CCC(=O)O)C(=O)N[C@@H](CCCCNC(C)=O)C(N)=O)NC(=O)[C@H](Cc2ccc(O)cc2)N(C)C(=O)[C@H](Cc2ccccc2)NC(=O)[C@H](CCCNC(=N)N)NC(=O)[C@H](CCCNC(=N)N)NC(=O)[C@H]([C@@H](C)CC)NC1=O` [compound 321]: the Kd under setting [1] was 1 to 100 nM.
Still for that read-out and setting: under `CC[C@H](C)[C@@H]1NC(=O)[C@H](Cc2ccc(OCC(=O)O)cc2)NC(=O)[C@H](Cc2ccc(N)nc2)NC(=O)[C@H](CC(N)=O)NC(=O)[C@H](Cc2c[nH]c3ccccc23)NC(=O)[C@H](C(C)C)NC(=O)[C@H](Cc2cccc(Cl)c2)N(C)C(=O)[C@H](C(C)C)NC(=O)[C@H](C)NC(=O)CSC[C@@H](C(=O)NCC(=O)N[C@@H](CO)C(=O)N[C@@H](CO)C(=O)N[C@@H](CO)C(=O)N[C@@H](CO)C(=O)N[C@@H](CO)C(=O)N[C@H](CCCCN)C(N)=O)NC(=O)[C@H](Cc2ccc(O)cc2)N(C)C(=O)[C@H](Cc2cccc(C(=O)O)c2)NC(=O)[C@H](CCCNC(=N)N)NC(=O)[C@H](CCC(=O)NCCOCCOCCOCCOCCOCCOCCOCCOC)NC(=O)[C@H]([C@@H](C)CC)NC1=O` [compound 342] stands 1 to 100 nM.
Regarding `CC[C@H](C)[C@@H]1NC(=O)[C@H](Cc2ccc(OCC(=O)O)cc2)NC(=O)[C@H](Cc2ccc(N)nc2)NC(=O)[C@H](CC(N)=O)NC(=O)[C@H](Cc2cn(CC(=O)O)c3ccccc23)NC(=O)[C@H](C(C)C)NC(=O)[C@H](Cc2cccc(Cl)c2)N(C)C(=O)[C@H](C(C)C)NC(=O)[C@H](C)NC(=O)CSC[C@@H](C(=O)NCC(=O)N[C@@H](CCCCN=[N+]=[N-])C(N)=O)NC(=O)[C@H](Cc2ccc(O)cc2)N(C)C(=O)[C@H](Cc2cccc(C(=O)O)c2)NC(=O)[C@H](CCCNC(=N)N)NC(=O)[C@H](CCC(=O)NCCOCCOCCOCCOCCOCCOCCOCCOC)NC(=O)[C@H]([C@@H](C)CC)NC1=O` [compound 305], the Kd under setting [2] fell in the range of 1 to 100 nM.
As for `CC[C@H](C)[C@@H]1NC(=O)[C@H](Cc2ccc(OCC(=O)O)cc2)NC(=O)[C@H](Cc2ccc(O)cc2)NC(=O)[C@H](CC(N)=O)NC(=O)[C@H](Cc2cn(CC(=O)O)c3ccccc23)NC(=O)[C@H](C(C)C)NC(=O)[C@H](Cc2cccc(Cl)c2)N(C)C(=O)[C@H](C(C)C)NC(=O)[C@H](C)NC(=O)CSC[C@@H](C(=O)NCC(=O)NCC(=O)N[C@H](CCCNC(=N)N)C(=O)NCC(=O)N[C@H](CCCNC(=N)N)C(=O)N[C@H](CO)C(=O)N[C@@H](CCCCN=[N+]=[N-])C(N)=O)NC(=O)[C@H](Cc2ccc(O)cc2)N(C)C(=O)[C@H](Cc2cccc(C(=O)O)c2)NC(=O)[C@H](CCCNC(=N)N)NC(=O)[C@H](CCC(N)=O)NC(=O)[C@H]([C@@H](C)CC)NC1=O` [compound 278], the Kd under setting [2] lay within 1 to 100 nM.
On to `CC[C@H](C)[C@@H]1NC(=O)[C@H](Cc2ccc(OCC(=O)O)cc2)NC(=O)[C@H](Cc2ccc(N)nc2)NC(=O)[C@H](CC(N)=O)NC(=O)[C@H](Cc2c[nH]c3ccccc23)NC(=O)[C@H](C(C)C)NC(=O)[C@H](Cc2cccc(Cl)c2)N(C)C(=O)[C@H](C(C)C)NC(=O)[C@H](C)NC(=O)CSC[C@@H](C(=O)NCC(=O)N[C@H](CO)C(=O)N[C@H](CO)C(=O)N[C@H](CO)C(=O)N[C@H](CCC(=O)O)C(=O)N[C@H](CCC(=O)O)C(=O)N[C@H](CCCCN)C(N)=O)NC(=O)[C@H](Cc2ccc(O)cc2)N(C)C(=O)[C@H](Cc2cccc(C(=O)O)c2)NC(=O)[C@H](CCCNC(=N)N)NC(=O)[C@H](CCC(=O)NCCOCCOCCOCCOCCOCCOCCOCCOC)NC(=O)[C@H]([C@@H](C)CC)NC1=O` [compound 343], for which, under setting [1], the Kd was 1 to 100 nM.
